Laboratory results from US8343760B2, “p53 activator peptides” (University of Maryland, Baltimore, priority 2008, dated 2013).

Tested on: p53+/+ tumor cells
Assay: Selective killing of p53+/+ tumor cells
Assay type: cell-based

## CC(C)C[C@@H](NC(=O)[C@@H](CC(C)C)NC(=O)[C@@H](CCCCN)NC(=O)[C@@H](CCC(=O)O)NC(=O)[C@@H](CC(C)C)NC(=O)[C@@H](CC(N)=O)NC(=O)[C@@H](C)NC(=O)[C@@H](Cc1ccc(O)cc1)NC(=O)[C@@H](Cc1c[nH]c2ccccc12)NC(=O)[C@@H](CC(N)=O)NC(=O)[C@H](N)[C@H](C)O)C(=O)N[C@H](CCCNC(=N)N)C(=O)O [D-PMI-8]
  killing of p53+/+ tumor cells: selectively kill p53^+/+ tumor cells in a concentration dependent manner
